The chains behind the UniProt entries cited, without tags or fusion partners. A line that says so, or that is headed by a name, gives the form on record, which may keep a tag or linker.
UniProt Q8N423, other isoform, or with tags, fused parts or gaps: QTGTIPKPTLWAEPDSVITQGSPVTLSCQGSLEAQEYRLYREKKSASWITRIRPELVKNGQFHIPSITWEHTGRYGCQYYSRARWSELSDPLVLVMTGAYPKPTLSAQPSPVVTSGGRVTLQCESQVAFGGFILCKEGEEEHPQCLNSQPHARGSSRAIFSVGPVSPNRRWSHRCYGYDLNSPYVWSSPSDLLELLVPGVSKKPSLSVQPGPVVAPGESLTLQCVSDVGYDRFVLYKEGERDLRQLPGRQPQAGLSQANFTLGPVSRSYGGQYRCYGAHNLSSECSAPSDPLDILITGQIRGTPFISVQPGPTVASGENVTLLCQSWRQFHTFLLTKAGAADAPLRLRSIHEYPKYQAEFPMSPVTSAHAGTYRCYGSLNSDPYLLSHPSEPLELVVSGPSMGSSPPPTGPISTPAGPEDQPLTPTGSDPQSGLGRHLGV

In patent US20220002403A1:

What was measured:
[1] = biological target: ILT4-His (recombinant extracellular domain of human ILT4 fused to a poly-Histidine tag) (human) (UniProt Q8N423); assay: SPR, kinetic fit; ratio of KD to that of 1E1(G4)
[2] = biological target: ILT4-His (recombinant extracellular domain of human ILT4 fused to a poly-Histidine tag) (human) (UniProt Q8N423); assay: SPR, steady-state approximation; ratio of KD to that of 1E1(G4)
[3] = biological target: ILT4-His (recombinant extracellular domain of human ILT4 fused to a poly-Histidine tag) (human) (UniProt Q8N423); assay: SPR (Biacore T200): Fc fusion captured, ILT4-His titrated; steady-state approximation
[4] = biological target: ILT4-His (recombinant extracellular domain of human ILT4 fused to a poly-Histidine tag) (human) (UniProt Q8N423); assay: SPR (Biacore T200): Fc fusion captured by human Fc capture on CM5 chip, ILT4-His titrated; 1:1 kinetic model; n=2

- KD Ratio [1]: 630
- KD Ratio [2]: 670
- Kd [3]: 11 µM
- Kd [4]: 11 µM
- koff [4]: 1.1 s⁻¹
Substance: HLA-G1 Fc (recombinant extracellular domain of HLA-G (isoform 1) fused to the human IgG1 Fc domain) (from UniProt P17693 25-308) (Fc fusion)
